Assay results: patent publication US20140249056A1, “BILAYERS” (ISIS INNOVATION LIMITED, priority 2009, published 2014)

Protein sequences, listed by entry. Tags and fused reporters are not part of them. Residues count along the entry.
UniProt Q12879, 23-1464: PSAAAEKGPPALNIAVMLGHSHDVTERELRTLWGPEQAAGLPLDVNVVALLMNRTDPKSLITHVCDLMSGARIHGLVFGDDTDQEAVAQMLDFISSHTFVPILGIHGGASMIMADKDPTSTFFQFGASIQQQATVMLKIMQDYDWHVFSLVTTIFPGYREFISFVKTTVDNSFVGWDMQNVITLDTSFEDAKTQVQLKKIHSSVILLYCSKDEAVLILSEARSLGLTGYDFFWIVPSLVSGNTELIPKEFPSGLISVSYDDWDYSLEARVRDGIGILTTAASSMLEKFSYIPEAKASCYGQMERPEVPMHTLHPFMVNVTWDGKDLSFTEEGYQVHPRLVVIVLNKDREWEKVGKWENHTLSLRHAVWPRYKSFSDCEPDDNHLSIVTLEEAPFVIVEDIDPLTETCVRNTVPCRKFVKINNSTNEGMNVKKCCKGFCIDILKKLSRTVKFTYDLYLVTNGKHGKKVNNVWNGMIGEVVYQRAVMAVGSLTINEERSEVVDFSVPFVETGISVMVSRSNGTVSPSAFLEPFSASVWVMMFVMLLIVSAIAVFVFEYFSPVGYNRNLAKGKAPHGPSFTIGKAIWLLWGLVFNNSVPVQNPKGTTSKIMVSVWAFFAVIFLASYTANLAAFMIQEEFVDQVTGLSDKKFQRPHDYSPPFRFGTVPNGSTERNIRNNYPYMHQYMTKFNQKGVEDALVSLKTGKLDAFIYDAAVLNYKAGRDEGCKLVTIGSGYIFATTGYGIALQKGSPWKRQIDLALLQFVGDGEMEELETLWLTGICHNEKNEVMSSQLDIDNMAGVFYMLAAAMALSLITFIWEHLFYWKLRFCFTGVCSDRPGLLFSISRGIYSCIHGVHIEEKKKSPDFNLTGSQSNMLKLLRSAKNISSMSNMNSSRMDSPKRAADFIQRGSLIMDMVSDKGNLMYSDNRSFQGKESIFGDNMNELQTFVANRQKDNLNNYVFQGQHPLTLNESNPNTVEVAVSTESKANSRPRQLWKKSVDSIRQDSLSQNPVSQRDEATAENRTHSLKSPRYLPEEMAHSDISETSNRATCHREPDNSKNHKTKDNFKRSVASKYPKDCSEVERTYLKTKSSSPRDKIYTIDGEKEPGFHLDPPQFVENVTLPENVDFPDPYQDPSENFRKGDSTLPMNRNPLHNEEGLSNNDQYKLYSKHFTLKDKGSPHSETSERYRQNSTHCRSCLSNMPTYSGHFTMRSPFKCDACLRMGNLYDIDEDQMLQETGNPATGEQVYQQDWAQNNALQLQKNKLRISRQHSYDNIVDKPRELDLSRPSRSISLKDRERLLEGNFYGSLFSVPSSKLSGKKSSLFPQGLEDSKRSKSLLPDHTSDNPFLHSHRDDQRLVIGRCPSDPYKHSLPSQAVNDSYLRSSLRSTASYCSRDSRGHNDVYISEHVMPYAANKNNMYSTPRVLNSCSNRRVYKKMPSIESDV

Target: Human NR1-1a/NR2A NMDA receptor (Homo sapiens, UniProt Q05586+Q12879)
Details: glutamate 10 μM and glycine 10 μM added together, +50 mV, bulk current, n=5

Q: `N[C@@H](CCC(=O)O)C(=O)O` [glutamate] was tested. Which “increase in ionic flux” value did it give?
A: 98%
